Data: patent US9227982B2, “4-oxo-3,5,7,8-tetrahydro-4H-pyrano[4,3-d]pyrminidinyl compounds for use as tankyrase inhibitors” (NOVARTIS AG, priority 2011, dated 2016)

The chains behind the UniProt entries cited, without tags or fusion partners. Where a name states a change or a piece, a line headed by the entry shows the natural chain unless it says otherwise. Residues count along the entry.
UniProt O88554: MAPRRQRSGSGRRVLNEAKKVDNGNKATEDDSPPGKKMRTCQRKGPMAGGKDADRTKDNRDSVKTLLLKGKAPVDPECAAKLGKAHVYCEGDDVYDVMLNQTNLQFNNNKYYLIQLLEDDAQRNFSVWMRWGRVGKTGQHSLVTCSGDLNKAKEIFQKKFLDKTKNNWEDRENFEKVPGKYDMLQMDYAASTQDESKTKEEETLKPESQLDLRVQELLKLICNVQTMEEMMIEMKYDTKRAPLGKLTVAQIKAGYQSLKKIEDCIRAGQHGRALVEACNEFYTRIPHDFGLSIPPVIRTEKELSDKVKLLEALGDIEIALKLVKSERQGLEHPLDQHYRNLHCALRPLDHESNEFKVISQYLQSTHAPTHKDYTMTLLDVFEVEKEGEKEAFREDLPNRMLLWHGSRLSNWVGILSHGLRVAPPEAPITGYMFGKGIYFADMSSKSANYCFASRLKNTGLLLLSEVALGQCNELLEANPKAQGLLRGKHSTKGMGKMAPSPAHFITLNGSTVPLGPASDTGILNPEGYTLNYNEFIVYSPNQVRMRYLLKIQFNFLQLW
UniProt Q9H2K2, 959-1164: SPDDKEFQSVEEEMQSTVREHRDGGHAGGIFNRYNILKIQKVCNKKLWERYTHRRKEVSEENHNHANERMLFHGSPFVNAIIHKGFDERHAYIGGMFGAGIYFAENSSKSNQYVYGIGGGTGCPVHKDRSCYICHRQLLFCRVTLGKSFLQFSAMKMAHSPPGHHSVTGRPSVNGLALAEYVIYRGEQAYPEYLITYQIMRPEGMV
UniProt P09874, whole entry: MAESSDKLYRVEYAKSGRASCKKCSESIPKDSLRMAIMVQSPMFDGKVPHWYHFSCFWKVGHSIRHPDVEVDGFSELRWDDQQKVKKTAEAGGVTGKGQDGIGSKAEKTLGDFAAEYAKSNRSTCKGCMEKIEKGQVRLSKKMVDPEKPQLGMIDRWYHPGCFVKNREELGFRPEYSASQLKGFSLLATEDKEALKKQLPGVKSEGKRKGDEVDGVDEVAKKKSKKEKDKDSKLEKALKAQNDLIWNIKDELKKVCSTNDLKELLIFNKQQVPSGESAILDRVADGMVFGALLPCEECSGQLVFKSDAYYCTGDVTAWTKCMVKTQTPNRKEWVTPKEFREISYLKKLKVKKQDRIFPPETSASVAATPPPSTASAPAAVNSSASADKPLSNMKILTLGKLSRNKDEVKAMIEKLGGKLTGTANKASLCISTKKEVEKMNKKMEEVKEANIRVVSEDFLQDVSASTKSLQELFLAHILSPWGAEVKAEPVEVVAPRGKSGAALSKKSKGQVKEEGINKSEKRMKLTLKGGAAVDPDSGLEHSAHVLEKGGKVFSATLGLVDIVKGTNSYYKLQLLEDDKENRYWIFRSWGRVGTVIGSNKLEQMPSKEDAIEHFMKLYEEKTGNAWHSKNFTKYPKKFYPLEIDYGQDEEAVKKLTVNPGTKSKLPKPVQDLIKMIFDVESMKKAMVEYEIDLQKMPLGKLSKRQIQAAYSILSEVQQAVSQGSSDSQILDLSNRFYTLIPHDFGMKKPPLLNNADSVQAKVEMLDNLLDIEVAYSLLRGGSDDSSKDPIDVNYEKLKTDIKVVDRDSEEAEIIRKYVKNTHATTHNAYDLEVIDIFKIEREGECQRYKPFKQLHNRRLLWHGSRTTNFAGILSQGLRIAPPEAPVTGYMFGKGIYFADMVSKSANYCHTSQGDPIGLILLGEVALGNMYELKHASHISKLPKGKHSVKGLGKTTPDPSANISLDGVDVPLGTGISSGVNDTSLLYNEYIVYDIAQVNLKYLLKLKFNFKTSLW

Assays:
Assay type in all cases: biochemical
PARP2 = PARP2 (Mus musculus (Mouse), UniProt O88554); experiment: PARP2 autoparsylation enzymatic assay (LC/MS detection of nicotinamide)
Source text: (§1) The human tankyrase 1 PARP catalytic domain, TNKS1P, was cloned into a pDONR221 vector using the Invitrogen Gateway Technology. This entry clone was then subcloned into the destination vector pDEST20 to obtain the N-terminal Glutathione S-transferase (GST)-tagged fusion protein. GST-TNKS1P was then expressed in Sf21 cells using the Invitrogen baculovirus expression system (Invitrogen-Bac-to-Bac® Baculovirus Expression System, Version D). The protein was purified by a GSTrap column (GE Healthcare). The N-terminal GST-tagged tankyrase 2 protein PARP domain, TNKS2P, was cloned, expressed, and purified in a similar manner.
(§2) The autoparsylation activity of the TNKS 1/2 or PARP1/2 enzymes was measured by the liquid chromatography-mass spectrometry (LC/MS) detection of nicotinamide as readout. Compound activity in inhibiting the TNKS and PARP autoparsylation was evaluated by IC50 measurements. […] For the background control wells, 10 μL of the 5× quenching solution per well was added prior to the addition of β-NAD^+. The % Inhibition was calculated as: (Control−Sample)/(Control−Background)*100.

[1] = target: TNKS2 (GST-tagged tankyrase 2 PARP domain, TNKS2P) (Homo sapiens (Human), UniProt Q9H2K2); experiment: TNKS2 autoparsylation enzymatic assay (LC/MS detection of nicotinamide); settings: 20 nM enzyme, 250 μM β-NAD+, 60 min, read-out: TNKS2 AP IC50
Source text: as §1, with “manner. Human PARP1 (Cat. No. 4668-100-01) and activated DNA (Cat. No. 4671-096-06) were purchased from Trevigen, Inc. PARP2 (Cat. No. ALX-201-064-C020) was purchased from Alexis Biochemical.” for “manner.”
The % Inhibition was calculated as: (Control−Sample)/(Control−Background)*100. “Control” is the average value of 8 wells without compound; and “Background” is the average of 8 wells mixed with 5× quenching solution measured prior to initiation of the reaction.

Human PARP1 = Human PARP1 (Homo sapiens (Human), UniProt P09874); experiment: PARP1 autoparsylation enzymatic assay (LC/MS detection of nicotinamide); settings: 20 nM enzyme, 250 μM β-NAD+, 60 min
Source text: as §1, §2

## O=C(CCc1ccccc1)N(Cc1nc2c(c(=O)[nH]1)COCC2)Cc1cccs1 [Example 1]
PARP2; autoparsylation, 20 nM enzyme, 250 μM β-NAD+, 60 min, read-out: PARP2 IC50
  IC50: > 19 µM

## O=C(CCc1ccc(F)cc1)N(Cc1nc2c(c(=O)[nH]1)COCC2)Cc1cccs1 [Example 2, 3-(4-Fluoro-phenyl)-N-(4-oxo-3,5,7,8-tetrahydro-4H-pyrano[4,3-d]pyrimidin-2-ylmethyl)-N-thiophen-2-ylmethyl-propionamide]
[1]
  IC50: 0.078 ± 0.005 µM

## O=C(CCc1ccccc1F)N(Cc1nc2c(c(=O)[nH]1)COCC2)Cc1cccs1 [Example 4, 3-(2-Fluoro-phenyl)-N-(4-oxo-3,5,7,8-tetrahydro-4H-pyrano[4,3-d]pyrimidin-2-ylmethyl)-N-thiophen-2-ylmethyl-propionamide]
[1]
  IC50: 0.064 ± 0.015 µM

## O=C(CCc1cccc(F)c1)N(Cc1nc2c(c(=O)[nH]1)COCC2)Cc1cccs1 [Example 5, 3-(3-Fluorophenyl)-N-((4-oxo-4,5,7,8-tetrahydro-3H-pyrano[4,3-d]pyrimidin-2-yl)methyl)-N-(thiophen-2-ylmethyl)propanamide]
[1]
  IC50: 0.284 ± 0.056 µM

## O=C(CCc1ccccc1O)N(Cc1nc2c(c(=O)[nH]1)COCC2)Cc1cccs1 [Example 6, 3-(2-Hydroxy-phenyl)-N-(4-oxo 3,5,7,8-tetrahydro-4H-pyrano[4,3-d]pyrimidin-2-ylmethyl)-N-thiophen-2-ylmethyl-propionamide]
[1]
  IC50: 0.766 ± 0.023 µM

## O=C(CCc1cccc(O)c1)N(Cc1nc2c(c(=O)[nH]1)COCC2)Cc1cccs1 [Example 7, 3-(3-Hydroxy-phenyl)-N-(4-oxo-3,5,7,8-tetrahydro-4H-pyrano[4,3-d]pyrimidin-2-ylmethyl)-N-thiophen-2-ylmethyl-propionamide]
PARP2
  IC50: > 19 µM
[1]
  IC50: 0.178 ± 0.016 µM

## O=C(CCc1ccncc1)N(Cc1nc2c(c(=O)[nH]1)COCC2)Cc1cccs1 [Example 11, N-((4-Oxo-4,5,7,8-tetrahydro-3H-pyrano[4,3-d]pyrimidin-2-yl)methyl)-3-(pyridin-4-yl)-N-(thiophen-2-ylmethyl)propanamide]
[1]
  IC50: 0.962 ± 0.013 µM

## CCN(Cc1nc2c(c(=O)[nH]1)COCC2)C(=O)CCc1ccccc1 [Example 15, N-Ethyl-N-((4-oxo-4,5,7,8-tetrahydro-3H-pyrano[4,3-d]pyrimidin-2-yl)methyl)-3-phenylpropanamide]
[1]
  IC50: 4.78 ± 0.4 µM

## N-((4-0xo-4,5,7,8-tetrahydro-3H-pyrano[4,3-d]pyrimidin-2-yl)methyl)-3-phenyl-N-(thiophen-3-ylmethyl)propanamide [Example 18]
Human PARP1
  IC50: 71 ± 18 µM
[1]
  IC50: 1.03 ± 0.07 µM

Like-named read-outs stand apart in the source and are kept apart here.
